Legend:
[1] = target: T1, Beta-1 adrenergic receptor (Cavia porcellus, UniProt B0FL73); assay: The compound was tested in vitro for its ability to block Beta-1 adrenergic receptor in guinea pig right atria; settings: read-out: pA2 (converted)
[2] = target: T1, Beta-1 adrenergic receptor; assay: Ability to block Beta-1 adrenergic receptor in guinea pig right atria preparation at a duration of 40 min; type: functional; settings: read-out: pA2 (converted)

Sequences of proteins named here, by UniProt entry; tags and fusion partners are left off.
UniProt B0FL73, whole entry: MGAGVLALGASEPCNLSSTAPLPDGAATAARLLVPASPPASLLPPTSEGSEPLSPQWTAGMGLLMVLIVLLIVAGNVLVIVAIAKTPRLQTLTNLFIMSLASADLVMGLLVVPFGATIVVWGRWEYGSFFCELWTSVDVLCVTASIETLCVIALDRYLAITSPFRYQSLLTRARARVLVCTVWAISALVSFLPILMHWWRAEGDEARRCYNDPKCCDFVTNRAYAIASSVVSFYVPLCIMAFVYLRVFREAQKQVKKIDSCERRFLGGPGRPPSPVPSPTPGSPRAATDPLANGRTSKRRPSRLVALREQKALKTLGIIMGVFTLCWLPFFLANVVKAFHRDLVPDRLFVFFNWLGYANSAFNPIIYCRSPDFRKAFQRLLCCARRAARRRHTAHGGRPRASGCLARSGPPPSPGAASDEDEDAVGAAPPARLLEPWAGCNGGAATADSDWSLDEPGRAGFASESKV

Row | Kb [2] | SMILES | Kb [1]
1 |  | COC(=O)c1ccccc1OCC(O)CNCCc1ccc(OC)c(OC)c1 (configuration not stated) | 0.00501 µM
2 | 0.1 µM | COC(=O)CCc1ccc(OCC(O)CNC(C)(C)C)cc1 (configuration not stated) | 

Source: ChEMBL document CHEMBL1121978, “Ultra-short-acting beta-adrenergic receptor blocking agents. 2. (Aryloxy)propanolamines containing esters on the aryl function” (J Med Chem, 1982)
